We go through 29 molecules from PubChem BioAssay AID652197 (Broad Institute, 2013).

The chains behind the UniProt entries cited, without tags or fusion partners.
UniProt Q9NZ08, whole entry: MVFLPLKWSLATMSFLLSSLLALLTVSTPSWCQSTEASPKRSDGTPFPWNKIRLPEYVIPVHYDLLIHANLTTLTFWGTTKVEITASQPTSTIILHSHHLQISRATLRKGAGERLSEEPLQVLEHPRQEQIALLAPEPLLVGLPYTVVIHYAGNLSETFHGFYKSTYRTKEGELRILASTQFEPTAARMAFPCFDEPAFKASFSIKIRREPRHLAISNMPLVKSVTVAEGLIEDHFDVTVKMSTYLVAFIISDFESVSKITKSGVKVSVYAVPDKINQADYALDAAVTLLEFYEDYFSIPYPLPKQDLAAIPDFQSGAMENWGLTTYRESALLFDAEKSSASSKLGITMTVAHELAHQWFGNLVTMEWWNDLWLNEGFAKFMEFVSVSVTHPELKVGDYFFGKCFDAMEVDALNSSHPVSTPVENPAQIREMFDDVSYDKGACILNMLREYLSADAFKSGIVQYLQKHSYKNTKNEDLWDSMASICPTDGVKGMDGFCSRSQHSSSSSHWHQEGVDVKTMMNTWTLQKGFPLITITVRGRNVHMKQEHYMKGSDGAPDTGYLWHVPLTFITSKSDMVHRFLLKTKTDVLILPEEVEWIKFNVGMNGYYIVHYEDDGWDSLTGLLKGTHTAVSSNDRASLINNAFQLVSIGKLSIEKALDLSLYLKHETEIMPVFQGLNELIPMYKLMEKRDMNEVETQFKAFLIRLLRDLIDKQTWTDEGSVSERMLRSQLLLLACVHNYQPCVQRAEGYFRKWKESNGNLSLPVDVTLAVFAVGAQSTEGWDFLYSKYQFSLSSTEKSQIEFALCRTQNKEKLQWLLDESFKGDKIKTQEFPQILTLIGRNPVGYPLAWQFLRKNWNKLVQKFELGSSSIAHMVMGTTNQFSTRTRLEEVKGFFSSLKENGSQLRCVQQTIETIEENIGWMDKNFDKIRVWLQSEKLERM

The list shows a part of the results, in another mix than the full data. Activity calls are given as the source filed them.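 Rule for the calls: active = mean replicate inhibition of at least 30%, or all replicates individually reaching that 30% level; inactive = mean below 30% and not every replicate reaching it.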

In general, inhibition refers to the drop in the measured response relative to a control, in per cent.

In this experiment the target is Endoplasmic reticulum aminopeptidase 1 (Homo sapiens) (UniProt Q9NZ08). Description: human ERAP1 aminopeptidase inhibitors, primary screen, biochemical, single point, plate reader (AID 652197).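 Note: 0% = neutral control wells and 100% = L-leucinethiol positive control wells.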 The settings on record: recombinant ERAP1, Leu-AMC fluorescence, 60 min; at 10.7 µM; hits give high values.
As to `O=C(NCC1(N2CCCCC2)CCCCC1)c1ccc(Cl)nc1`, the inhibition was inactive: 3.67%.

`COc1ccc(Cl)cc1C(=O)NCC1(N2CCOCC2)CCCCC1`: the inhibition is inactive: 0.827%.

On to `O=C(OC1CN2CCC1CC2)C1c2ccccc2Oc2ccccc21` (centres undefined), for which the inhibition was inactive: 1.16%. For `O=c1[nH]c2ccccc2n1C1CCN(C(c2cc3ccccc3o2)c2nnnn2C2CCCCC2)CC1` (centres undefined) the value was inactive: 2.45%. On to `O=C(NCC1(N2CCCCC2)CCCCC1)c1ccc(Cl)s1`, for which the inhibition is inactive: -1.61%. Turning to `N#CC1(Nc2ccccc2)CCN(Cc2ccccc2)CC1`, the inhibition was inactive: 2.12%. For `CCCCn1nnnc1C(c1ccc(OC)cc1)N1CCC(n2c(=O)[nH]c3ccccc32)CC1` (centres undefined) the value was inactive: -3.82%; for `CCOC(=O)N1CCC(Nc2ccc(OC)cc2)CC1`, inactive: -0.99%.

For the molecule `CCC(c1nnnn1C1CCCC1)N1CCC(n2c(=O)[nH]c3ccccc32)CC1` (centres undefined), the inhibition is inactive: 0.671%. For `CC(C)(C)OC(=O)N1CCC(N(C(=O)c2ccccc2)c2ccc(F)cc2)CC1` the value was inactive: -1.44%; for `COc1ccc(C(=O)NCC2(N3CCCCC3)CCCCC2)c(OC)c1OC`, inactive: 5.43%. Under `COc1ccc(C(=O)NCC2(N3CCCCC3)CCCCC2)cc1` stands inactive: 1.89%. Regarding `CCCCn1nnnc1C(c1cccs1)N1CCC(n2c(=O)[nH]c3ccccc32)CC1` (centres undefined), the inhibition is inactive: -1.03%. For the molecule `O=C(NCC1(N2CCCCC2)CCCCC1)c1cccs1`, the inhibition was inactive: -2.41%.

For the molecule `CCCCn1nnnc1C(CC)N1CCC(n2c(=O)[nH]c3ccccc32)CC1` (centres undefined), the inhibition was inactive: -0.223%. For the molecule `O=C(NCC1(N2CCCCC2)CCCCC1)c1ccc(=O)[nH]c1`, the inhibition is inactive: 0.817%. Under `Cc1cccc(NC2(C#N)CCN(Cc3ccccc3)CC2)c1` stands inactive: 1.96%. Under `CSc1ccccc1C(=O)NCC1(N2CCCCC2)CCCCC1` stands inactive: 1.92%; under `O=c1[nH]c2ccccc2n1C1CCN(C(c2ccccc2)c2nnnn2C2CCCCC2)CC1` (centres undefined), inactive: 2.26%; under `COc1cc(C(=O)NCC2(N(C)C)CCCCC2)ccc1OC(F)F`, inactive: -1.65%. Under `CCOC(=O)N1CCC(Nc2cccc(C)c2)CC1` stands inactive: 0.282%; under `O=C1CCN(Cc2ccccc2)CC1`, inactive: 0.369%.

For the molecule `CC(C)(C)n1nnnc1C(c1ccccc1)N1CCC(n2c(=O)[nH]c3ccccc32)CC1` (centres undefined), the inhibition was inactive: 3.32%. For `CCOc1ccc(C)cc1CN(CCCl)CCCl` the value was inactive: -1.84%; for `CCOC(=O)N1CCC(Nc2ccc(F)cc2)CC1`, inactive: -0.18%; for `O=C(NCC1(N2CCCCC2)CCCCC1)c1ccc(F)cc1`, inactive: -2.29%.

Consider `CCCCn1nnnc1C(c1cc2ccccc2o1)N1CCC(n2c(=O)[nH]c3ccccc32)CC1` (centres undefined), for which the inhibition is inactive: -2.12%. For `O=P1(N(CCCl)CCCl)SCCCS1` the value was inactive: -3.35%; for `CCCCOc1ccc(C(=O)NCC2(N3CCOCC3)CCCCC2)cc1`, inactive: 1.18%.
